The target in assay [1] is purified human IDO protein (Homo sapiens (Human), UniProt P14902). Description: Enzymatic IDO assay. The assay is classed as biochemical. The protocol: Expression vectors for human indoleamine-2,3-dioxygenase (IDO) protein were prepared by amplification of a 1219 bp fragment of the sequence present in vector phIDO6His cDNA with primers 5′-ggagcatgcta[…]-3′ (SEQ ID NO: 1) and 5′gagagatct[…]-3′ (SEQ ID NO: 2) and cloning the SphI-BglII 1213 bp fragment into pQE70 (Qiagen), to yield vector pQE70-hIDO. This construct adds 2 extra amino acids and a 6-Histidine tag to the C-terminus of the natural human IDO protein while preserving intact the natural start codon and N-terminus amino acid sequence.
Plasmid pQE70-hIDO was transformed into M15(pREP4) cells (Qiagen) and clones were selected in LB-agar plates supplemented with carbenicillin 50 μg/mL and kanamycin 30 μg/mL. Protein expression was carried out by growing an overnight culture of the M15pREP4/pQE70-hIDO clone in 100 mL LB supplemented with 100 μg/mL carbenicillin, 50 μg/mL kanamycin and 50 μg/mL of L-tryptophan (LBCKT medium). 40 mL of this culture were inoculated into 750 mL of LBCKT for 4 hours at 37° C. […]
The inhibitors were initially diluted in DMSO at 100 mM and were diluted in potassium phosphate 50 mM, added to the reaction mixture at final concentrations raging from 1 mM to 5 nM and preincubated with the enzyme for 5 min at 25° C. […] The reaction was incubated 10 min at 25° C. and read at 480 nm in a spectrophotometer.

Chains of the proteins cited; added tags and fusions are not shown. Lines headed by an entry give the natural chain unless they say otherwise; changes in a name come on top.
UniProt P14902, whole entry P110S/E119G: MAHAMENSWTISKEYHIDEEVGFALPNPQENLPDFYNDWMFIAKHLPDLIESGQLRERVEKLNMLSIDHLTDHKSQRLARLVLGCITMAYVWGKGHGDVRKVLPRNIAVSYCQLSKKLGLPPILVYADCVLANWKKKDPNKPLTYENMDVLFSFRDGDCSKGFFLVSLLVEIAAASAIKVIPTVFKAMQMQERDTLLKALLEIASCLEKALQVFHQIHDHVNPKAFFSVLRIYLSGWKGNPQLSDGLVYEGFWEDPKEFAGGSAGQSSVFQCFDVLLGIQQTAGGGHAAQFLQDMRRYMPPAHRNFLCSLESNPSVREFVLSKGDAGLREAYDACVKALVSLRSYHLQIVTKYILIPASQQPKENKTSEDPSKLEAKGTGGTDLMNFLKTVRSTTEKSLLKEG
UniProt P48775: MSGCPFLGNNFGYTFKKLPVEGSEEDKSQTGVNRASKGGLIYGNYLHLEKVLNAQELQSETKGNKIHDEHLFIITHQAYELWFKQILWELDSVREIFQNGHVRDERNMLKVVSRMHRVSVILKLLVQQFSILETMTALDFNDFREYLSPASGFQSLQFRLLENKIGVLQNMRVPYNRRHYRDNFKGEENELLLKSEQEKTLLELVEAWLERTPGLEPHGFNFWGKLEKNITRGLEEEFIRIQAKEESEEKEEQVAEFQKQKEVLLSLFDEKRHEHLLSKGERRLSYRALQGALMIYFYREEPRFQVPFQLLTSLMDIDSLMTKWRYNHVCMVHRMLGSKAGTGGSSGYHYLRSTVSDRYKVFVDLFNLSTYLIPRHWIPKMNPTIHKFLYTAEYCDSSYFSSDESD

For assay [2], the target named is purified human TDO protein (Homo sapiens (Human), UniProt P48775). The experiment in a line: Enzymatic TDO assay. The assay is classed as biochemical. As for the experimental part:
Differently from the IDO activity assay, no methylene blue is added to the assay. The inhibitors were initially diluted in DMSO at 100 mM and were diluted in potassium phosphate 50 mM, added to the reaction mixture at final concentrations raging from 300 μM to 5 nM and preincubated with the enzyme for 5 min at 25° C. The reaction was started by addition of L-tryptophan to 200 μM and incubated 15 min at 37° C. The reaction was stopped by addition of 0.5 vol of 30% trichloroacetic acid and incubated 30 min at 60° C. to hydrolyze N-formylkynurenine to kynurenine. The reaction was centrifuged at 3400 g for 5 min to remove precipitated protein and the supernatant was reacted with 2% (w/v) of p-dimethylaminobenzaldehyde in acetic acid. The reaction was incubated 10 min at 25° C. and read at 480 nm in a spectrophotometer. Control samples with no TDO inhibitor, or with no TDO enzyme were used as controls to set the parameters for the non-linear regressions necessary for determination of the IC50 for each compound. Nonlinear regressions and determination of the IC50 values were performed using the GraphPad Prism 4 software.

Bounds are passed on as bounds.

One may read the IC50 as the point on the concentration scale where inhibition reaches its midpoint. Low readings indicate inhibition by little substance, high ones a need for much substance. In assay [1], `OC(CC1c2ccccc2-n2cncc21)C1CCCCC1` (centres unmarked) [Compound 70, 1-cyclohexyl-2-(9H-imidazo[1,5-a]indol-9-yl)ethan-1-ol] came in with an IC50 of under 1 µM. Turning to `Cc1ccc(NC(=O)N2CCC(C(O)CC3c4ccccc4-c4cnnn43)CC2)cc1` (stereo not drawn) [Compound 67, 4-(2-(8H-[1,2,3]triazolo[5,1-α]isoindol-8-yl)-1-hydroxyethyl)-N-(p-tolyl)piperidine-1-carboxamide], in assay [2], the IC50 was 10 to 100 µM.

Source of the values: patent US9617272B2, “Tricyclic compounds as inhibitors of immunosuppression mediated by tryptophan metabolization” (NewLink Genetics Corporation, priority 2013, dated 2017).
